Measured affinities in a library of Ab-91 heavy chain variants

Values reported by Engelhart et al. 2022, doi:10.1038/s41597-022-01779-4 (FLAb copy).

Target: peptide PDVDLGDISGINAS, taken from heptad repeat 2 (HR2) of SARS-CoV-2 spike.

Parent scFv Ab-91: VL joined to VH by a (GGGGS)3 linker. Changes lie in the heavy chain CDRs alone.
VL: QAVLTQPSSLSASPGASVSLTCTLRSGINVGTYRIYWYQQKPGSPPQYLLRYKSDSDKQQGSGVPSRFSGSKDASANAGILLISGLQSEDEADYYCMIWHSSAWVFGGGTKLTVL
VH: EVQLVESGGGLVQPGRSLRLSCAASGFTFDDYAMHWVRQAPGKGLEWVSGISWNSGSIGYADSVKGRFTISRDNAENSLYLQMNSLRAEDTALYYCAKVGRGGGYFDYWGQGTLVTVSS

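The starting antibody came from a phage panning campaign against this peptide. Library AAYL51 holds single substitutions and randomly drawn double and triple substitutions in the CDRs. AlphaSeq pools MATa yeast showing the antibodies with MATalpha yeast showing the peptide. After mating in shaken culture at 30 °C for 16 h, diploids were selected and their barcode pairs sequenced. Each replicate has its own calibration line, from reference interactions of the BCL2 family. Each pool was mated in three replicate cultures.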

Changes read parent residue, position, new residue, counted from the first residue of the VH shown. All variants listed here change G56 of the VH, counted from its first residue. Kd is apparent (estimated from mating counts) and averaged on the log scale over replicates with a signal. Smaller is tighter. Where no diploid with the target was found in any replicate, the entry reads "nd": below detection, most likely a poor binder, though not proof of it. For reference, the parent read 72 nM as the reference entry and 7.5 nM as a member of this library. Empty control strains, which show no peptide, gave a signal in 21% of pairings with library AAYL51; the median was 34 µM and 95% of these signals were weaker than 1.8 µM. No background was subtracted. Also given: how often the same scFv was detected with the empty control strains.

For T28F+G56I+F106V, the assay gave nd (0 of 3 replicates; controls 0 of 9). Variant G56F+G104Y+Y108K gave 420 µM (2 of 3 replicates; controls 6 of 9). With I51V+G56V+G103P the result was nd (0 of 3 replicates; controls 1 of 9). With G56T+D62L the result was 8.9 µM (3 of 3 replicates; controls 1 of 9). With H35E+G56D+A61V the result was 7.9 µM (3 of 3 replicates; controls 1 of 9). For D31H+W53R+G56T, the assay gave 87 µM (3 of 3 replicates; controls 4 of 9). Variant F29G+G56P showed nd (0 of 3 replicates; controls 0 of 9).

Variant F29A+G56D+G103C showed 110 µM (2 of 3 replicates; controls 4 of 9). For F29V+W53Q+G56Y, the assay gave nd (0 of 3 replicates; controls 0 of 9). Variant T28Q+G50R+G56K gave nd (0 of 3 replicates; controls 0 of 9). For W53I+G56S, the assay gave 1.0 mM (2 of 3 replicates; controls 4 of 9). With H35R+G56K+I58K the result was nd (0 of 3 replicates; controls 0 of 9). With G56L+Y60A+G100T the result was 170 nM (3 of 3 replicates; controls 4 of 9). Variant F29I+G56A+K65M gave nd (0 of 3 replicates; controls 1 of 9).

Variant I51D+G56V+G103L gave nd (0 of 3 replicates; controls 2 of 9). With G26Q+G56W the result was 7.9 µM (2 of 3 replicates; controls 0 of 9). Variant G56F+G102I+F106W gave 250 nM (1 of 3 replicates; controls 0 of 9). With F27T+N54E+G56P the result was nd (0 of 3 replicates; controls 2 of 9). Variant S52A+G56M+V64E showed 300 µM (2 of 3 replicates; controls 4 of 9). Variant S55M+G56R+Y108W gave 54 µM (1 of 3 replicates; controls 0 of 9). For G56V+D62L, the assay gave nd (0 of 3 replicates; controls 1 of 9).

With G26H+G56W+F106A the result was nd (0 of 3 replicates; controls 1 of 9). With T28E+G56S+G104A the result was 3.3 µM (1 of 3 replicates; controls 0 of 9). Variant M34Q+G56R showed nd (0 of 3 replicates; controls 2 of 9). Variant G56A+V64L showed 16 nM (3 of 3 replicates; controls 1 of 9). Variant T28L+W53E+G56W showed 17 µM (1 of 3 replicates; controls 2 of 9). For G56E+S63V+G104C, the assay gave 110 µM (3 of 3 replicates; controls 1 of 9). With A33C+G56Y+I58D the result was 17 µM (2 of 3 replicates; controls 1 of 9).

With G56H+K65G+G104E the result was 39 µM (3 of 3 replicates; controls 2 of 9). Variant S55D+G56E+D107L showed 2.9 µM (2 of 3 replicates; controls 0 of 9).

Extract of 2 entries:

For H35R+G56K+I58K, the assay gave nd (0 of 3 replicates; controls 0 of 9).
For F29V+W53Q+G56Y, the assay gave nd (0 of 3 replicates; controls 0 of 9).